# Experimental data published in PMC7984436 (Clinical Pharmacology in Drug Development, 2020).
# Assay type: in vivo, human
# Conditions: Study period 1, day 1: bupropion 150 mg alone, mean ± SD
smiles,measurement,value
"CC(NC(C)(C)C)C(=O)c1cccc(Cl)c1 (stereo not shown) [Bupropion, bupropion]",t1/2,26.0 ± 7.3 h
